Laboratory results published in patent US4933368A, “N-phenylbenzamide derivatives” (Godecke Aktiengesellschaft, priority 1983, dated 1990).

Key:
in vivo = settings: mouse, po
[1] = tested on: murine tumors and human tumor xenografts; settings: mouse, in vivo, 120 mg/kg

Compound `O=C1NC(=O)C(c2ccccc2)(c2ccccc2)N1` [Diphenylhydantoin, reference compound] has an LD50 at 168 h (in vivo) of 128 mg/kg.
With `Nc1ccc(C(=O)Nc2ccccc2N)cc1` [Substance A, 4-Amino-N-(2'-aminophenyl)-benzamide] the mortality [1] was “mortality had occurred in all groups”.
